“And” between values parts separate entries of the source, which are not always exact repeats. Equal entries are not always repeated. The entries are a selection whose mix differs from that of the whole data set. Inconclusive results are not listed. The source made the active and inactive calls. Calls come from the whole dose curve; as a rule, active = well fitted curve in the direction sought with a large enough effect in the polarisation (not every such curve was filed as active); inconclusive = small, poorly fitted or top-dose-only effect, or effect the other way, or a change in a side signal; inactive = no such curve, though single readings can be large or run the other way; the % refers to the polarisation.

The nature of the assay: qHTS Assay for Inhibitors Targeting the Menin-MLL Interaction in MLL Related Leukemias: Competition With Fluorescein Labeled MLL-derived Peptide. Note: % of control where 0% means no effect. The settings on record: Fluorescence polarization, fluorescein-MLL peptide displacement from menin; at 61.4 µM (top of the series). (qHTS replaces the single test concentration by a dilution series.)
In the case of `CN(CCCl)CCCl`, the FP activity change is inactive: -3.41% and inactive: 5.28%.

With `CCC(=O)N(c1ccccc1)C1CCN(CCc2ccccc2)CC1`, the FP activity change was inactive: 0.535%.
